In one test the target is human LSD1 (Homo sapiens (Human), UniProt O60341). Nature of the test: Evaluation of enzyme activity: LSD1 fluorescence coupling enzyme assay (HRP/Amplex Red). The settings on record: human LSD1, histone H3(1-21)K4me2 peptide 10 μM, 30 min pre-incubation. The protocol:
The purpose of this test is to test the in vitro inhibitory activities of the compounds against LSD1. The enzyme used in this experiment was human LSD1, and the standard substrate was histone H3(1-21)K4me2 peptide (10 μM). HCI-2509 (SP2509) was used as reference compound, and the fluorescence coupling enzyme assay was employed. The production of FAD-dependent H2O2 as a result of demethylase activity of LSD1 was measured by coupling with HRP and Amplex Red. Compounds as well as control compound HCl-2509 were tested in 10-dose IC50 mode with a 3-fold serial dilution in duplicate starting at 10 μm. All compounds were pre-incubated 30 mins with enzyme before added substrate to start reaction. Fluorescence measurement: Ex/Em=535/590 by EnVision.
The test compound's inhibitory activities against LSD11 was classified as: + for IC50≤50 nM; ++ for IC50>50 nM and ≤100 nM; +++ for IC50>100 nM and ≤500 nM, and the results are shown in Table 1.

In another test the test system is H1417 cells. In words: Cell proliferation inhibitory activity on H1417 cells (CellTiter-Glo, 10 days). How it is done: Experimental purposes: To test the proliferation inhibitory activities of the test compounds on H1417 cells.
Experimental materials: RPMI 1640 medium, fetal bovine serum, Promega CellTiter-Glo reagent. The H1417 cell line purchased from ATCC. Envision Multi-Label Analyzer (PerkinElmer).
Experimental method: H1417 cells were seeded in a black 384-well plate, 1000 cells per well in […] of cell suspension. The test compounds were diluted 3-fold with Epmotion to the 10th concentration i.e, the compounds were diluted from 10 mmol to […], and a double duplicate well experiment was set. 198 μL medium was added to the middle plate, according to the corresponding position, 2 μL gradient diluted compounds were added to the middle plate. The mixture was mixed evenly and transferred 20 μL per well to the cell plates. The cell plates were incubated in a carbon dioxide incubator for 10 days. 25 μL of Promega CellTiter-Glo reagent per well was added to the cell plate and the mixture was incubated for 10 minutes at room temperature to stabilize the luminescence signal. Readings were performed by PerkinElmer Envision multi-label analyzer.
Data analysis: The original data was converted to the inhibition rate by the equation (Max-Ratio)/(Max-Min)*100%, and the value of IC50 can be obtained by curve fitting with four parameters. (Model 205 in XLFIT5, iDBS) […]

Each structure is given as a SMILES string. Some results are limits rather than exact numbers.

These results are taken from patent publication US11433053B2, “LSD1 inhibitor and preparation method and application thereof” (CSPC ZHONGQI PHARMACEUTICAL TECHNOLOGY (SHIJIAZHUANG) CO., …, priority 2017, dated 2022).

Turning to `N#Cc1ccc(-c2cc(C3(CN[C@H]4C[C@@H]4c4ccccc4)CC3)no2)cc1`, the IC50 is below 50 nM against human LSD1 and below 100 nM in the test with H1417 cells (10 days incubation). Also, the “Maximum inhibition percentage (%)” value in the test on H1417 cells (highest percentage inhibition of cell viability) is recorded as “C (70%>C≥50%)”.
